Some targets named below: fibrinogen (UniProt P02671); protein C (UniProt P04070); PAR-1 (UniProt P25116).

Take W215A/E217A thrombin: in the series with fibrinogen, the Fibrinogen (FpA) (kcat/Km) worked out at 0.00089 µM⁻¹ s⁻¹. Besides, in the series with protein C, the PC Activation (kcat/Km) stood at 1e-05 mM⁻¹ s⁻¹ and the PC Activation + TM (kcat/Km, with exogenous thrombomodulin) is 12 mM⁻¹ s⁻¹. Besides, the PAR-1 (kcat/Km) with PAR-1 was 0.026 µM⁻¹ s⁻¹.
On the same counts, the results for Thrombin are 17 µM⁻¹ s⁻¹, 0.103 mM⁻¹ s⁻¹, 220 mM⁻¹ s⁻¹ and 30 µM⁻¹ s⁻¹.

Values taken from patent US20190153419.
